# logP (octanol/water) values, as collected for the OPERA models

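OPERA's authors assembled the values from existing databases and did not measure them anew. One number stands for a compound and property, with no spread given. Conditions of the individual experiments are not part of the data. Where a salt, mixture or single isomer is drawn, the source does not say that exactly this form was tested. Some entries may be limits or estimates that an upstream database listed as plain numbers.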

logP is the log10 of the octanol-water partition coefficient; higher is more lipophilic.
Cells with "–" have no entry in this list.

SMILES,name,logP
CSCCC=O,3-(Methylthio)propanal,-0.16
CCCCOC(=O)/C=C\C(=O)OCCCC,Dibutyl maleate,3.39
Cc1nn(-c2ccccc2)c(N)c1/N=N/c1cc(Cl)c(S(=O)(=O)[O-])cc1Cl.[Li+],–,-0.034
COc1ccccc1N1CCN(CCNC(=N)C2CCCCC2)CC1,–,3.4
Cc1nc2ccccn2c(=O)c1CCCl,"3-(2-Chloroethyl)-2-methyl-4H-pyrido(1,2-a)pyrimidin-4-one",1.9
CC1CC(=O)CC(C)(C)C1 (centres undefined),"3,3,5-Trimethylcyclohexanone",2.4
O=S(=O)([O-])c1ccc(Nc2nc(Nc3ccc(/C=C/c4ccc(Nc5nc(Nc6ccc(S(=O)(=O)[O-])cc6)nc(N6CCOCC6)n5)cc4S(=O)(=O)[O-])c(S(=O)(=O)[O-])c3)nc(N3CCOCC3)n2)cc1.[Na+].[Na+].[Na+].[Na+],–,-3.39
CNC(=O)N(c1ccccc1)c1ccccc1,"N'-Methyl-N,N-diphenylurea",1.69
O=S(=O)([O-])CO.[Na+],Sodium hydroxymethanesulfonate,-4.6
Nc1ccc(C(=O)OCCCOC(=O)c2ccc(N)cc2)cc1,"1,3-Propanediol, bis(4-aminobenzoate)",2.63
ClC1CCCC1,"Cyclopentane, chloro-",2.7
COC1=CCC2=C(CCC3C2CCC2(C)C3CCC2(O)C#N)C1 (centres undefined),"17-Hydroxy-3-methoxyestra-2,5(10)-diene-17-carbonitrile",5.07
C=CC(C)=CCC1OC1(C)C (centres undefined),"2,2-Dimethyl-3-(3-methylpenta-2,4-dienyl)oxirane",2.99
O=C1NC(=O)c2cccc3cccc1c23,"1H-Benzo[de]isoquinoline-1,3(2H)-dione",1.4
C1CCC(COCC2CCCCC2)CC1,–,5.67
Oc1cc(Cl)c(Br)cc1Cl,"4-Bromo-2,5-dichlorophenol",2.42
C[C@]12CCC(=O)C=C1CC[C@@H]1[C@@H]2[C@@H](O)C[C@]2(C=O)[C@@H](C(=O)CO)CC[C@@H]12,Aldosterone,1.08
CCCCC(=O)OCC(=O)[C@H]1[C@H](C)C[C@H]2[C@@H]3C[C@H](F)C4=CC(=O)C=C[C@]4(C)[C@@]34O[C@H]4C[C@@]21C,–,4.34
CCC[C@H]1CCO[C@@H](C)S1,"(2R,4S)-2-Methyl-4-propyl-1,3-oxathiane",3.205
CCOc1ccc(NC(=O)C(N=Nc2ccc(-c3ccc(N=NC(C(C)=O)C(=O)Nc4ccc(OCC)cc4)c(Cl)c3)cc2Cl)C(C)=O)cc1 (centres undefined),C.I. Pigment Yellow 152,1.1
CC1=C(O)C(=O)CC1,Cyclotene,0.4
ClCC=Cc1ccccc1,3-Phenylallyl chloride,2.75
Oc1ccc(OCc2ccccc2)cc1,4-(Benzyloxyl)phenol,3.2
CC(=O)[O-].CCN(Cc1ccccc1)c1ccc(/C=C/c2cc[n+](CCO)cc2)cc1,–,-0.27
O=S(=O)([O-])c1ccc(O)c(/N=N/c2ccc3c(O)cccc3c2O)c1.[Na+],"C.I. Mordant Black 9, monosodium salt",-1.4
CC(=CCC1CC=C(C)C1(C)C)CO (stereo in doubt),–,4.191
Cc1ccc(Cl)cc1NC(=O)c1cc2ccccc2cc1O,–,2.8
O=C1c2ccccc2C(=O)c2c1ccc1c2[nH]c2ccc3c4ccccc4c(=O)c4ccc1c2c43,"Anthra[2,1,9-mna]naphth[2,3-h]acridine-5,10,15(16H)-trione",2.3
CC1=CC(C)OC(C(C)c2ccccc2)C1 (centres undefined),–,3.9
Oc1c(-c2ccccc2)cccc1-c1ccccc1,"[1~1~,2~1~:2~3~,3~1~-Terphenyl]-2~2~-ol",3.9
CN1CCC[C@@H]1Cc1c[nH]c2ccc(CCS(=O)(=O)c3ccccc3)cc12,Eletriptan,3.9
CCOC(=O)CC1C=CCC1 (centres undefined),"2-Cyclopentene-1-acetic acid, ethyl ester",2.89
CC(C)(O)C(=O)c1ccc(C2(C)CC(C)(C)c3cc(C(=O)C(C)(C)O)ccc32)cc1 (centres undefined),–,3.35
COc1ccc(C)cc1NC(C)=O,"Acetamide, N-(2-methoxy-5-methylphenyl)-",1.46
CSCC[C@H](NC(C)=O)C(=O)O,"L-Methionine, N-acetyl-",-0.03
CCOCCn1c(N2CCCN(C)CC2)nc2ccccc21,Emedastine,2.6
Cc1ccc(N)cc1S(=O)(=O)O,5-Amino-2-methylbenzenesulfonic acid,0.65
CCCCCCCCCCCC(=O)NCCO,Laurylethanolamide,3.8
CNCC(O)c1ccc(OC(=O)C(C)(C)C)c(OC(=O)C(C)(C)C)c1 (centres undefined),Dipivefrin,1.7
O=C1CCCC=CCCCCCCCCCC1,5-Cyclohexadecen-1-one,6.4
Cc1nn(-c2ccccc2)c(=O)[c-]1/N=N/c1ccccc1C(=O)[O-].Cc1nn(-c2ccccc2)c(=O)[c-]1/N=N/c1ccccc1C(=O)[O-].[Cr+3].[H+],Acid Yellow 121,1.098
IC[C@H]1CC[C@H](CI)CC1,"trans-1,4-Bis(iodomethyl)cyclohexane",5.8
Cc1[nH]c2ccccc2c1/N=N/c1cc(Cl)c(S(=O)(=O)NCCS(=O)(=O)[O-])cc1Cl.[Na+],–,0.83
N#CNC(=N)NCCCCCCNC(=N)NC#N,"Guanidine, N,N'''-1,6-hexanediylbis[N'-cyano-",0.6
CCC[C@@H]1C[C@@H](C(=O)N[C@@H]([C@H]2O[C@H](SCC)[C@H](O)[C@@H](O)[C@H]2O)[C@@H](C)O)N(CC)C1,Lincomycin S,1.91
COCCCn1c(=O)c2c(N)c3c(=O)c4ccccc4c(=O)c3c(N)c2c1=O,C.I. Disperse Blue 60,4.2
O=C([O-])C(O)C(O)C1OB(O)OC1CO.O=C([O-])C(O)C(O)C1OB(O)OC1CO.[Ca+2] (centres undefined),–,-0.87
CCCC[P+](CCCC)(CCCC)CCCC.[Cl-],Tetrabutylphosphonium chloride,-0.04
C=C1CC[C@]2(C(C)C)C[C@H]12,Sabinen,5.5
CCCCNC(=S)N(CCCC)CCCC,Tributylthiourea,4
COc1ccccc1N1CCN(CCNC(=S)C2CCCCC2)CC1,–,3.7

The last 5 entries again:

SMILES,name,logP
O=C([O-])C(O)C(O)C1OB(O)OC1CO.O=C([O-])C(O)C(O)C1OB(O)OC1CO.[Ca+2] (centres undefined),–,-0.87
CCCC[P+](CCCC)(CCCC)CCCC.[Cl-],Tetrabutylphosphonium chloride,-0.04
C=C1CC[C@]2(C(C)C)C[C@H]12,Sabinen,5.5
CCCCNC(=S)N(CCCC)CCCC,Tributylthiourea,4
COc1ccccc1N1CCN(CCNC(=S)C2CCCCC2)CC1,–,3.7

Values as listed in the OPERA 2.9 repository of K. Mansouri.